Assay results published in US8906952B2, “Indole derivative or pharmaceutically acceptable salt thereof, preparation method thereof, and pharmaceutical composition for preventing or treating metabolic diseases containing same as active ingredient” (Korea Research Institute of Bioscience and Biotechnology, priority 2011, dated 2014).

Amino acid sequences for entries named in this document (tags omitted).
UniProt O75907, whole entry: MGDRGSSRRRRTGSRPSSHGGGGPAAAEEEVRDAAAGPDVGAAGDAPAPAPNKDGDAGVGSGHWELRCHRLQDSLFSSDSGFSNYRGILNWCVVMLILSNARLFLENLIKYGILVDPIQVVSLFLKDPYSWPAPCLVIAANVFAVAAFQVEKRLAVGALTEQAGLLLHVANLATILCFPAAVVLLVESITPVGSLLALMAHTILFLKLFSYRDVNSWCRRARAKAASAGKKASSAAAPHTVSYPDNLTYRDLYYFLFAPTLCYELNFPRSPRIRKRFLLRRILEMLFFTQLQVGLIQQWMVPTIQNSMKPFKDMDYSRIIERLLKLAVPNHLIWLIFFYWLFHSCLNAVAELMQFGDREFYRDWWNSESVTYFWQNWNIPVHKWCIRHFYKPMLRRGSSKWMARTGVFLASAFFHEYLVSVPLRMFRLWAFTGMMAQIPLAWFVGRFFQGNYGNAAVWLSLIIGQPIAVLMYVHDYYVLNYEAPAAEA
UniProt Q96PD7, whole entry: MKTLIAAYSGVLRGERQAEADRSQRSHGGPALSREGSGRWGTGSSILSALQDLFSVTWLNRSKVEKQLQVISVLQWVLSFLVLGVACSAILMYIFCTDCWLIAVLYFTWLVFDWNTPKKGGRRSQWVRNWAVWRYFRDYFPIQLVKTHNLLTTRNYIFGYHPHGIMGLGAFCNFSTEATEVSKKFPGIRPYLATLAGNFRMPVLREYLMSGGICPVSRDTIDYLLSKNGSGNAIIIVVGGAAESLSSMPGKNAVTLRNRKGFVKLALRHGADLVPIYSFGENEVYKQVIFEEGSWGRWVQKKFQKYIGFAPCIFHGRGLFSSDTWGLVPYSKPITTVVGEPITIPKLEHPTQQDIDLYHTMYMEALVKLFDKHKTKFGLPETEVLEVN
UniProt Q9ERM3, whole entry: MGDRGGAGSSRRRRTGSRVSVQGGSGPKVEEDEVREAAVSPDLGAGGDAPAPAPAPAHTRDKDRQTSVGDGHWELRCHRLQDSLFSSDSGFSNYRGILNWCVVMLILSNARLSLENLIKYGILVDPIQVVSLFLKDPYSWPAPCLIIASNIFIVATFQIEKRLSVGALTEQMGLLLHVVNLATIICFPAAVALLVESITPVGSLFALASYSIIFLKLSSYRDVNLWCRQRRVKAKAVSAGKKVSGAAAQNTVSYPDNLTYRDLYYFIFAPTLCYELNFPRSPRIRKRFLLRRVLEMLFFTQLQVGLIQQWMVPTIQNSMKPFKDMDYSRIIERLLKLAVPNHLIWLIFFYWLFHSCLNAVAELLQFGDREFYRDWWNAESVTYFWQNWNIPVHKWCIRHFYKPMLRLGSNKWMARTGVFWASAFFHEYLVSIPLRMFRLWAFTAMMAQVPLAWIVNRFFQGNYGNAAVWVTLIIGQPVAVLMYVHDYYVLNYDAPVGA

Experiments:
HepG2 cells = assay: DGAT inhibitory effect in HepG2 cells (triglyceride production from [14C]glycerol); settings: DMSO control = 100
Procedure: To investigate inhibition effect on intracellular DGAT enzyme activity of the compounds obtained in Examples 1-51, intracellular DGAT enzyme activity was measured using human-derived liver HepG2 cells.
HepG2 cells were purchased from ATCC, and cultured in 37° C., 5% CO2 incubator including minimum essential medium (2 mM L-glutamine, earle's BSS adjusted to contain 1.5 g/L sodium bicarbonate, 0.1 mM nonessential amino acids, and 1 mM sodium pyruvate) added with 10% fetal bovine serum (FBS) and 1% antibiotic (100 U/ml penicillin and 100 µg/ml streptomycin).
The intracellular DGAT enzyme activity was measured based on an amount of triglycerides produced in the cultured HepG2 cells, by adding 10 μM enzyme inhibitor compounds obtained in Examples 1-51, respectively, and then determining the effect of the enzyme inhibitors according to reduction rate of the triglyceride production.
Specifically, cells were seeded 1×10^6 cell/ml per well of the 24 well culture plate, and 24 hours after incubation, medium was exchanged with FBS-free DMEM medium, and sample of 0.2 mCi [^14C]glycerol (Amersham) was added as substrate, and the reaction was allowed to occur for 6 hr. The induced production of triglyceride was catalyzed by the DGAT enzyme, and DGAT enzyme activity was determined based on the amount of production of triglyceride which was measured based on the amount of radiation. […]

human DGAT1 = human DGAT1 (Homo sapiens, UniProt O75907); assay: DGAT enzyme inhibition test, hDGAT1 enzyme from sf9 insect cells; settings: read-out: hDGAT-1 (sf9) IC50; enzyme from sf9 cells overexpressing hDGAT1
Source text: (§1) To investigate inhibitory effect of the compounds of Examples 1-33 against DGAT enzyme activity, DGAT enzyme inhibition and DGAT2 selectivity were investigated using zymogen including:
(§2) 1) hDGAT1 and hDGAT2 enzymes, derived from insect cell overexpressing human DGAT1 and DGAT2 (‘sf9’), respectively,
(§3) To be specific, for the purpose of measuring human-derived DGAT enzyme inhibitory activity, using the zymogen, including enzymes derived from insect cell overexpressing human DGAT1 and DGAT2 (‘sf9’), microsomal protein isolated from human duodenal adenocarcinoma (‘Hutu 80’), and microsomal protein isolated from rat, and according to Coleman et al., (Methods Enzymol., 98-103, 1992), and substrate including 1,2-diacylglycerol(Sigma, D0138) and [^14C]palmitoyl-CoA (Amersham, CFA583), the amount of radiation of [^14C]triacylglycerol produced after enzymatic reaction was measured.
(§4) To be more specific, to the reaction solution containing 175 mM Tris-HCl (pH 8.0), 20 μl bovine serum albumin (10 mg/ml), 100 mM magnesium chloride, 30 μM [^14C]palmitoyl CoA (0.02 μCi, Amersham) and 200 μM 1,2-dioleoylglycerol, reagent dissolved in dimethylsulfoxide (10.0 μl) was added. […] After taking 0.65 ml supernatant from the decoction, the amount of radiation was measured with liquid scintillation counter (LSC). The DGAT inhibitory activity was calculated with Mathematical Expression 1 below: […]

human DGAT2 = human DGAT2 (Homo sapiens, UniProt Q96PD7); assay: DGAT enzyme inhibition test, hDGAT2 enzyme from sf9 insect cells (DGAT2 selectivity); settings: enzyme from sf9 cells overexpressing hDGAT2
Source text: as §1, §2, §3, §4

DGAT-1 (rat liver) = DGAT-1 (rat liver) (Rattus norvegicus, UniProt Q9ERM3); assay: DGAT enzyme inhibition test, rat liver-derived DGAT enzyme; settings: read-out: DGAT-1 (rat liver) IC50; rat liver microsomal protein
Source text: as §1
3) rat liver-derived DGAT enzyme.
as §3, §4

hDGAT-1 (HuTu 80) = hDGAT-1 (HuTu 80) (Homo sapiens, UniProt O75907); assay: DGAT enzyme inhibition test, microsomal protein from human duodenal adenocarcinoma (Hutu 80); settings: read-out: hDGAT-1 (HuTu 80) IC50; microsomal protein from HuTu 80
Source text: as §1
2) DGAT enzyme derived from human duodenal adenocarcinoma (‘Hutu 80’), and
as §3, §4

IC50 (human DGAT1): > 100 µM | hDGAT-2 (sf9) inhibition rate(%)at 10 μM (human DGAT2): — (—: no inhibition) | IC50 (DGAT-1 (rat liver)): 3.7 µM | IC50 (hDGAT-1 (HuTu 80)): 10 µM
SMILES: COCCOc1ccc(C(=O)NN(C(=O)/C=C/c2cn(C(=O)OC(C)(C)C)c3ccccc23)C(C)C)cc1
Triglyceride production rate (%)/HepG2 cells at 10 μM (HepG2 cells): 72.6%
